From patent US4169096A, “Antibiotic compounds” (priority 1977, dated 1979)
Converted amounts (≈) assume the structure as drawn.

What was measured:
[1] = system: Fusobacterium varium ATCC 8501; experiment: microbe, parasite or virus in culture; details: ATCC8501
[2] = system: Peptocuccus prevotii ATCC 9321; experiment: microbe, parasite or virus in culture

## COC(=O)C1C(C)OC2(C)CC(=O)C3OC12OC(C(C)/C=C(C)/C=C/C(=O)C1=C(O)CNC1=O)C3C (centres unmarked) [Bu-2313B]
[1]
  MIC: 0.1 µg/mL (≈ 0.199 µM)
[2]
  MIC: 0.1 µg/mL (≈ 0.199 µM)
